In patent US8741916B2, “1,3,8-trisubstituted-1,3,8-triaza-spiro[4.5]decan-4-one derivatives as ligands of the ORL-1 receptor” (dated 2014):

How the values were obtained:
Mu opioid receptor = Mu opioid receptor (Rattus norvegicus, UniProt P33535); test: Rat brain mu opioid receptor binding ([3H]DAMGO); settings: rat forebrain membranes, mean where tested more than once; for Mu % Inh @ 1 μM: 1 μM test compound; for Ki: read-out: Mu Ki
Delta Opioid Receptor = Delta Opioid Receptor (Rattus norvegicus, UniProt P33533); test: Rat brain delta opioid receptor binding ([3H]Naltrindole); settings: rat forebrain membranes, mean where tested more than once; for Delta % Inh @ 1 μM: 1 μM test compound; for Ki: read-out: Delta Ki
[1] = target: recombinant human nociceptin receptor (ORL-1) (Homo sapiens, UniProt P41146); test: Nociceptin receptor binding assay ([3H]-nociceptin, HEK293 cell membranes); settings: read-out: ORL1 Ki, mean where tested more than once
kappa opioid receptor = kappa opioid receptor (Cavia porcellus, UniProt P41144); test: Kappa (KOP) receptor binding ([3H]U-69593, cerebellum membrane homogenates); settings: read-out: Kappa Ki; guinea pig cerebellum membranes, 0.7 nM [3H]U-69593

Row | SMILES | Ki (Mu opioid receptor) | Ki [1] | also measured
1 | O=C1N(CCc2cn(Cc3ccccc3)nn2)CN(c2ccc(F)cc2)C12CCN([C@H]1Cc3cccc4cccc1c34)CC2 | 46 nM | 4 nM | Mu % Inh @ 1 μM (Mu opioid receptor): 95%; Delta % Inh @ 1 μM (Delta Opioid Receptor): 20%
2 | CNCc1cn(CCCN2CN(c3ccc(F)cc3)C3(CCN([C@@H]4Cc5cccc6cccc4c56)CC3)C2=O)nn1 | 18 nM | 0.21 nM | –
3 | O=C1N(CCn2cc(-c3cccnc3)nn2)CN(c2ccc(F)cc2)C12CCN([C@H]1Cc3cccc4cccc1c34)CC2 | – | 3.36 nM | –
4 | CNCc1cn(CCCN2CN(c3ccc(F)cc3)C3(CCN([C@H]4Cc5cccc6cccc4c56)CC3)C2=O)nn1 | 82.3 nM | 0.08 nM | Ki (Delta Opioid Receptor): 1510 nM
5 | C#CCCN1CN(c2ccc(F)cc2)C2(CCN(C3Cc4cccc5cccc3c45)CC2)C1=O (stereo not shown) | – | 1.54 nM | Mu % Inh @ 1 μM (Mu opioid receptor): 94%; Delta % Inh @ 1 μM (Delta Opioid Receptor): 39%
6 | O=C1N(CCCn2cc(-c3cccc(F)c3)nn2)CN(c2ccc(F)cc2)C12CCN([C@@H]1Cc3cccc4cccc1c34)CC2 | 38.5 nM | 0.38 nM | Ki (Delta Opioid Receptor): 173 nM; Ki (kappa opioid receptor): 94 nM
7 | O=C1N(CCCn2cc(-c3cccc(F)c3)nn2)CN(c2ccc(F)cc2)C12CCN([C@H]1Cc3cccc4cccc1c34)CC2 | – | 1.37 nM | –
8 | [N-]=[N+]=NCCCN1CN(c2ccc(F)cc2)C2(CCN([C@@H]3Cc4cccc5cccc3c45)CC2)C1=O | – | 0.23 nM | –
9 | CC(=O)OCCN1CN(c2ccc(F)cc2)C2(CCN(C3Cc4cccc5cccc3c45)CC2)C1=O (stereo not shown) | – | 0.3 nM | –
10 | O=C1N(CCCOC2CCCCO2)CN(c2ccc(F)cc2)C12CCN(C1Cc3cccc4cccc1c34)CC2 (stereo not shown) | – | 1.01 nM | –
11 | O=C1N(CCn2cc(-c3cccnc3)nn2)CN(c2ccc(F)cc2)C12CCN([C@@H]1Cc3cccc4cccc1c34)CC2 | 13.7 nM | 0.8 nM | –
12 | [N-]=[N+]=NCCN1CN(c2ccc(F)cc2)C2(CCN([C@@H]3Cc4cccc5cccc3c45)CC2)C1=O | 15.6 nM | 0.33 nM | –
13 | O=C1N(CCOC2CCCCO2)CN(c2ccc(F)cc2)C12CCN(C1Cc3cccc4cccc1c34)CC2 (stereo not shown) | – | 0.28 nM | –
14 | [N-]=[N+]=NCCCN1CN(c2ccc(F)cc2)C2(CCN([C@H]3Cc4cccc5cccc3c45)CC2)C1=O | – | 1.2 nM | –
15 | [N-]=[N+]=NCCN1CN(c2ccc(F)cc2)C2(CCN([C@H]3Cc4cccc5cccc3c45)CC2)C1=O | – | 0.98 nM | –
